Laboratory results reported in article PMC7470027, “Synthesis and structure-activity relationships of novel 5-(hydroxamic acid)methyl oxazolidinone derivatives as 5-lipoxygenase inhibitors” (Journal of Enzyme Inhibition and Medicinal Chemistry, 2020).

Sequences of proteins named here, by UniProt entry; tags and fusion partners are left off.
UniProt P09917, whole entry: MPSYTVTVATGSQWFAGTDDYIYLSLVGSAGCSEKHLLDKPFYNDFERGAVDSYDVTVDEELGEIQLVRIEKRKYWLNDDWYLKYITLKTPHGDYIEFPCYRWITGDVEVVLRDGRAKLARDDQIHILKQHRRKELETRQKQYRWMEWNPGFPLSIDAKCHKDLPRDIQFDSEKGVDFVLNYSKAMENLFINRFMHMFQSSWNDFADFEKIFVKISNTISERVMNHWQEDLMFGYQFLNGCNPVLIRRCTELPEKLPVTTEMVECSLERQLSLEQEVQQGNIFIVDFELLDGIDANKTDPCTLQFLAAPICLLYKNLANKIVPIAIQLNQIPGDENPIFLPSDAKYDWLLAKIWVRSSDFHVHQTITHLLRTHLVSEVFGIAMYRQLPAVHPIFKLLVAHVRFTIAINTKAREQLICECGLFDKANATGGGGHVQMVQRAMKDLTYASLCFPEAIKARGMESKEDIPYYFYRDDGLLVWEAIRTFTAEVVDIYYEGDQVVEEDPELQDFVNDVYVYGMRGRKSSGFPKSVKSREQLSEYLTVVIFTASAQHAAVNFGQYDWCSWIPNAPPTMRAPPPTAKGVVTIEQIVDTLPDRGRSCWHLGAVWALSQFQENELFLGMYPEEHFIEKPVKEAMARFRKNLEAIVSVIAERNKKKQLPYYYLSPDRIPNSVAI

Legend:
[1] = system: 5-LO product LTC4 from isolated human monocytes; assay: Inhibition of 5-LO product LTC4 from isolated human monocytes (A23187); details: read-out: Human monocyte LTC4 IC50 (CI), calcium ionophore A23187, 95% confidence interval in brackets
[2] = system: 5-LO product LTC4 from allergen/IgE-activated bone marrow-derived mouse mast cells (BMMC); assay: Inhibition of 5-LO product LTC4 from allergen/IgE-activated bone marrow-derived mouse mast cells (BMMC); details: read-out: Mouse mast cell LTC4 IC50 (CI); anti-DNP IgE/DNP-BSA-activated BMMC; 95% confidence interval in brackets
recombinant human 5-LO = recombinant human 5-LO (Homo sapiens, UniProt P09917); assay: Direct inhibition of 5-LO activity in a cell-free assay (H2DCF-DA fluorescence); format: biochemical; details: read-out: Direct inhibition of 5-LO activity. IC50 (CI), 95% confidence interval in brackets
[3] = system: 5-LO-dependent generation of LTB4 from activated human whole blood; assay: Inhibition of 5-LO product LTB4 from activated human whole blood (LPS/FMLP); details: read-out: Human whole blood LTB4 IC50 (CI); LPS-primed, FMLP-stimulated human whole blood; 95% confidence interval in brackets

IC50 [1] [µM] | IC50 [2] [µM] | IC50 (recombinant human 5-LO) [µM] | IC50 [3] [µM] | SMILES
23.3 | > 50 | 7.8 | 22.5 | CC(=O)N1CCN(c2ccc(N3CC(CN(O)C(=O)C4CC4)OC3=O)cc2F)CC1 (centres unmarked)
> 50 | > 50 | > 30 | 38.2 | CC(=O)N1CCN(c2ccc(N3CC(CN(OC(=O)C4CC4)C(=O)C4CC4)OC3=O)cc2F)CC1 (centres unmarked)

Second part, the compound before the results:

SMILES | IC50 [1] [µM] | IC50 [2] [µM] | IC50 (recombinant human 5-LO) [µM] | IC50 [3] [µM]
CC(C)C(=O)ON(C[C@H]1CN(c2ccc(N3CCOCC3)c(F)c2)C(=O)O1)C(=O)C(C)C | > 50 | – | – | –
CC(=O)N1CCN(c2ccc(N3CC(CN(O)C(=O)C(C)C)OC3=O)cc2F)CC1 (centres unmarked) | 32.7 | > 50 | 14.8 | –
O=C(ON(C[C@H]1CN(c2ccc(N3CCOCC3)c(F)c2)C(=O)O1)C(=O)C1CC1)C1CC1 | > 50 | – | – | –
CC(=O)N(O)CC1CN(c2ccc(N3CCN(C(C)=O)CC3)c(F)c2)C(=O)O1 (centres unmarked) | > 50 | > 50 | > 30 | 38
